Experimental data reported in PMC10655131 (Journal of medicinal chemistry, 2021).

Test system: recombinant HIV-1 RT
Assay: colorimetric Reverse Transcriptase Assay
Format: biochemical
Conditions: RT IC50 relative to best inhibitor (NBD-14189)

CC1(C)CC(NC(=O)C(=O)Nc2ccc(Cl)cc2)CC(C)(C)N1 [NBD-556, reference compound]
Fold-change from best inhibitor (IC50): >133
